Literature values as cited in patent publication US20240156723A1, “DEPOT COMPOSITIONS FOR VESICULAR MONOAMINE TRANSPORTER 2 (VMAT2) INHBITORS” (Foresee Pharmaceuticals Co., Ltd., priority 2022, published 2024).

Sequences of proteins named here, by UniProt entry; tags and fusion partners are left off.
UniProt Q05940, whole entry: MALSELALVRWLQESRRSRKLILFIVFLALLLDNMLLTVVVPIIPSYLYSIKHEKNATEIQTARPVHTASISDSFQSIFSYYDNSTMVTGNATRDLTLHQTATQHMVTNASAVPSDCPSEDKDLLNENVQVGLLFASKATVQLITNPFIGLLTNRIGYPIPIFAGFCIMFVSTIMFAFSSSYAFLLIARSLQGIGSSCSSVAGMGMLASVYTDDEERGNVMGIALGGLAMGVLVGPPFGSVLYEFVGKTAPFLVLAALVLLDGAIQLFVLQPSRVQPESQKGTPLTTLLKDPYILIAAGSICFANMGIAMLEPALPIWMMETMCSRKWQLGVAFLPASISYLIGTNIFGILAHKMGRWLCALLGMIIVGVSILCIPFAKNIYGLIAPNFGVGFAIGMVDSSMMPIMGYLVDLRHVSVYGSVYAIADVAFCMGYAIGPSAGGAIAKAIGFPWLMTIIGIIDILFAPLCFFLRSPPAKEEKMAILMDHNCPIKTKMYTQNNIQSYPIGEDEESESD

Target: human VMAT2 (Homo sapiens, UniProt Q05940)
Conditions: read-out: human VMAT2 binding affinity Ki; cited from earlier work

[−]-β-dihydrotetrabenazine [(−)-(β)-DHTBZ]
Ki: ~690 nM
